Results taken from ChEMBL document CHEMBL3351542, “Nonpeptide small molecule agonist and antagonist original leads for neuropeptide FF1 and FF2 receptors” (J Med Chem, 2014).
pKi: −log10 of the molar value.

Protein sequences, listed by entry. Tags and fused reporters are not part of them. Lines headed by an entry give the natural chain unless they say otherwise; changes in a name come on top.
UniProt P41143, whole entry, looked up: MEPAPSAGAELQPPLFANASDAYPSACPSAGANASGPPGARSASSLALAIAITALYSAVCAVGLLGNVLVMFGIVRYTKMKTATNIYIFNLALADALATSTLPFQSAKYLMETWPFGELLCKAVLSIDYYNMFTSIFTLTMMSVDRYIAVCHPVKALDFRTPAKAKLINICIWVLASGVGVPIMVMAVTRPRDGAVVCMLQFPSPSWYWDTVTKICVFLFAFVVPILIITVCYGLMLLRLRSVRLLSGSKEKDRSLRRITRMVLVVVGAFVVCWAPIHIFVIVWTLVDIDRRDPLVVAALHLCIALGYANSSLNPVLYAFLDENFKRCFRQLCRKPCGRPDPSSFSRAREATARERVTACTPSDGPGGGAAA
UniProt P35372, whole entry, looked up: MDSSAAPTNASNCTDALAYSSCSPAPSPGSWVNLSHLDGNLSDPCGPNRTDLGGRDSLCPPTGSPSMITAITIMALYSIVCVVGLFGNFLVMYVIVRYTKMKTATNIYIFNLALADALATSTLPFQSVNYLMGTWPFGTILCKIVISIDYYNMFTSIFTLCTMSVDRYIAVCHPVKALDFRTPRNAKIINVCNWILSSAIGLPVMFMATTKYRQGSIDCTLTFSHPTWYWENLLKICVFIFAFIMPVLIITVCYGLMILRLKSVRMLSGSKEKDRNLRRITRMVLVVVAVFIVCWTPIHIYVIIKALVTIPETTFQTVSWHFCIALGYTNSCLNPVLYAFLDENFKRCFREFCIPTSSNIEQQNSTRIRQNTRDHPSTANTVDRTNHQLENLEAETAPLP
UniProt P41145: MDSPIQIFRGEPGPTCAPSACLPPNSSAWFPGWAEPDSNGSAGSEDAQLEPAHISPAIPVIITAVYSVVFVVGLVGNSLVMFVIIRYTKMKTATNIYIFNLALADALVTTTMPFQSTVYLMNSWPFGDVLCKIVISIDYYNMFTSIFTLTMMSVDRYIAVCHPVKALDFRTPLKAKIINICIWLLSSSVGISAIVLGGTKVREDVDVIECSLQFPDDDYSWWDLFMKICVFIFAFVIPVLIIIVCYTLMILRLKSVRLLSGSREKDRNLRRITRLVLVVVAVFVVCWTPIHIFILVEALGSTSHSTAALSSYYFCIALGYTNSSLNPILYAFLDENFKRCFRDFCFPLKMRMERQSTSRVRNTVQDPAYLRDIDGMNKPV

Key:
[1] = target: Delta-type opioid receptor (Homo sapiens, UniProt P41143); experiment: Displacement of [3H]diprenorphine from human DOR expressed in African green monkey COS-1 cells after 1 hr
Mu-type opioid receptor = Mu-type opioid receptor (Homo sapiens, UniProt P35372); experiment: Displacement of [3H]diprenorphine from human MOR expressed in African green monkey COS-1 cells after 1 hr
[2] = target: Kappa-type opioid receptor (Homo sapiens, UniProt P41145); experiment: Displacement of [3H]diprenorphine from human KOR expressed in CHO cells after 1 hr

Measured: pKi

CC(=N)NCCC[C@H](NC(=O)C12CC3CC(CC(C3)C1)C2)C(=O)N[C@@H](Cc1ccccc1)C(N)=O
< 5.30: all assays above
